# Measurements from US12637428B2, “Isoquinoline derivatives as SIK2 inhibitors” (Cancer Research Technology Limited, priority 2019, dated 2026).
# Sequences of proteins named here, by UniProt entry; tags and fusion partners are left off. Residues count along the entry.
# UniProt P29317, 24-976 limits assumed: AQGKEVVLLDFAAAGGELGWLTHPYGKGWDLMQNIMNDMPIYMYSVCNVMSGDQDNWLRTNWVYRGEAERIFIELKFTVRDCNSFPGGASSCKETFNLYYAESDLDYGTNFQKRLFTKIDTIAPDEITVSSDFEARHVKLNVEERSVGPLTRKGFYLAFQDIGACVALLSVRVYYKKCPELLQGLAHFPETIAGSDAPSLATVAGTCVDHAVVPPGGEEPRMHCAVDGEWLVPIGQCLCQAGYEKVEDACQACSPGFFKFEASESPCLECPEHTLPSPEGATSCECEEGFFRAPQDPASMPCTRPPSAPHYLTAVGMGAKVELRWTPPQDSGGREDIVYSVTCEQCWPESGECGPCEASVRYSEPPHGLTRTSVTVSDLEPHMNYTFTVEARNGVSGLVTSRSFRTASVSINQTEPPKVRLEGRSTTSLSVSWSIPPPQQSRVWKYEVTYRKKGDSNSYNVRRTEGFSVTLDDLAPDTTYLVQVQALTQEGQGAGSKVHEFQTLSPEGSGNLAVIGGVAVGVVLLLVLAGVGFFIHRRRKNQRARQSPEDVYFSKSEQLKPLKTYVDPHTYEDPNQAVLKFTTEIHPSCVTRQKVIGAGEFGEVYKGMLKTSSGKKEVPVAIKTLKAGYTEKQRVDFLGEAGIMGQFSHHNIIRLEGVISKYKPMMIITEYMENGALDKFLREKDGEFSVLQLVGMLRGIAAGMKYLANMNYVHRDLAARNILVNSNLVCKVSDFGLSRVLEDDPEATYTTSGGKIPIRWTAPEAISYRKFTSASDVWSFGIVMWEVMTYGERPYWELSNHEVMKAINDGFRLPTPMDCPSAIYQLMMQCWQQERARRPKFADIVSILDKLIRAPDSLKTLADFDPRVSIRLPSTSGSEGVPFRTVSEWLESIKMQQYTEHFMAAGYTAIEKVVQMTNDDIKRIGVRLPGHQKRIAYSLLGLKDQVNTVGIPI
# UniProt Q9Y2K2, whole entry: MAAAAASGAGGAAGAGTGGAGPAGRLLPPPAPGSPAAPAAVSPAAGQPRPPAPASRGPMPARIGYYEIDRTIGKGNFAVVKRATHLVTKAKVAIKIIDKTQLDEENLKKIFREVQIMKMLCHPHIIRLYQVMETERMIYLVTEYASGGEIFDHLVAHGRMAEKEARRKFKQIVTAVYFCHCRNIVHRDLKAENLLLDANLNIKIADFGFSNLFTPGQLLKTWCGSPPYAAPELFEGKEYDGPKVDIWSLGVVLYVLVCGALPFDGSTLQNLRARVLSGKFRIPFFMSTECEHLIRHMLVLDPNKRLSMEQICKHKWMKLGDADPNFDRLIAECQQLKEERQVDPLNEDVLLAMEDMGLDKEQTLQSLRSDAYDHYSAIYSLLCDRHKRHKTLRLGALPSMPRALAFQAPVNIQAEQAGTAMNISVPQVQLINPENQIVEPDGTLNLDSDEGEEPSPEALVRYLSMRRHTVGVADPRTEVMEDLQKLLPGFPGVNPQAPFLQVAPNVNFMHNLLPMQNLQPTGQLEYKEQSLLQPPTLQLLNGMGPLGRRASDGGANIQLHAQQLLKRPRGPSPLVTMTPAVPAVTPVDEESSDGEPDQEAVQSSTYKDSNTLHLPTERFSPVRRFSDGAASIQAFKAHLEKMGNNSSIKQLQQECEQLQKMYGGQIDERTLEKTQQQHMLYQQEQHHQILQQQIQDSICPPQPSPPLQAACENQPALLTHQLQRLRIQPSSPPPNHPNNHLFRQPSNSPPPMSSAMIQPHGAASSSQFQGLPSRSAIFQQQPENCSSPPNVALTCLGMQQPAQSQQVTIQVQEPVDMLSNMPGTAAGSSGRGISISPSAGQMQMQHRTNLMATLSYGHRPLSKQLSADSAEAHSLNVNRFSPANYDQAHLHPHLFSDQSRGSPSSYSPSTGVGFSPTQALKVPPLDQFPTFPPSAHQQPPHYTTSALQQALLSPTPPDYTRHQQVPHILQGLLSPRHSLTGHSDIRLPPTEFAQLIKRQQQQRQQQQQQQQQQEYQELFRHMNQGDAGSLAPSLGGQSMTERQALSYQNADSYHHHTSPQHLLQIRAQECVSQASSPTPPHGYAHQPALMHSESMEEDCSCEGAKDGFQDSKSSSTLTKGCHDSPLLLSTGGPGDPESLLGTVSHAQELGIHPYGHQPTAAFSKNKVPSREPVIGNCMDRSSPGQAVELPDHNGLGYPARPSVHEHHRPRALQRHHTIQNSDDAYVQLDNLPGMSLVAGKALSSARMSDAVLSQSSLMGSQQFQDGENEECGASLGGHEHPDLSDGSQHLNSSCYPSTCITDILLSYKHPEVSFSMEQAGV
# UniProt P00519, whole entry: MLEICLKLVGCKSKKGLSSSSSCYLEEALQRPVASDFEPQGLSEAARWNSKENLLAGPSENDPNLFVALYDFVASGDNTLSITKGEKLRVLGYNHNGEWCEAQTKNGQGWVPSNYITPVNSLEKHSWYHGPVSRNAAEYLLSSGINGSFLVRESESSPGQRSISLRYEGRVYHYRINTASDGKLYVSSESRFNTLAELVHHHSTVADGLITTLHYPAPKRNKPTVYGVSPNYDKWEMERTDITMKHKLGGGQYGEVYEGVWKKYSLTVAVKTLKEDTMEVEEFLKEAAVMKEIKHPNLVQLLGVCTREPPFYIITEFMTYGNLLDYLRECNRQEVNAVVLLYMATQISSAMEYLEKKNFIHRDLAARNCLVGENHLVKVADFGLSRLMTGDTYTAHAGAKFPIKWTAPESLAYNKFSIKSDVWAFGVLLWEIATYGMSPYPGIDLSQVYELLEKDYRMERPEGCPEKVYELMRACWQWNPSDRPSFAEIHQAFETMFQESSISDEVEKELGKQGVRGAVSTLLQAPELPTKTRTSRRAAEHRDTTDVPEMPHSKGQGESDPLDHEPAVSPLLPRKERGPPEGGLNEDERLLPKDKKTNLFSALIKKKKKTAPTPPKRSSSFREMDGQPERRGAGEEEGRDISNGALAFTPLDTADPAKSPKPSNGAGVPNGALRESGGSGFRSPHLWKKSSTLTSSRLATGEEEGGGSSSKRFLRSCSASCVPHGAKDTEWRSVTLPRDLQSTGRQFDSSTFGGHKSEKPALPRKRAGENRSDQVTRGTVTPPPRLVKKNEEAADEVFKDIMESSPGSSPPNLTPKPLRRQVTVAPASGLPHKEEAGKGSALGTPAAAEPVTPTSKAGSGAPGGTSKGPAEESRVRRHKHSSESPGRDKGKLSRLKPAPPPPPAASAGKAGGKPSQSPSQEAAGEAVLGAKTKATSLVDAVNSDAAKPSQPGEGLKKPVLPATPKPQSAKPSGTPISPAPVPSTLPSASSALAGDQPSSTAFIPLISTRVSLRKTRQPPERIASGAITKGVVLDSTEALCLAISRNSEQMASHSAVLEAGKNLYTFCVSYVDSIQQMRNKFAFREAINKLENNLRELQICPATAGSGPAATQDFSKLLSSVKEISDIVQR
# UniProt P12931, whole entry: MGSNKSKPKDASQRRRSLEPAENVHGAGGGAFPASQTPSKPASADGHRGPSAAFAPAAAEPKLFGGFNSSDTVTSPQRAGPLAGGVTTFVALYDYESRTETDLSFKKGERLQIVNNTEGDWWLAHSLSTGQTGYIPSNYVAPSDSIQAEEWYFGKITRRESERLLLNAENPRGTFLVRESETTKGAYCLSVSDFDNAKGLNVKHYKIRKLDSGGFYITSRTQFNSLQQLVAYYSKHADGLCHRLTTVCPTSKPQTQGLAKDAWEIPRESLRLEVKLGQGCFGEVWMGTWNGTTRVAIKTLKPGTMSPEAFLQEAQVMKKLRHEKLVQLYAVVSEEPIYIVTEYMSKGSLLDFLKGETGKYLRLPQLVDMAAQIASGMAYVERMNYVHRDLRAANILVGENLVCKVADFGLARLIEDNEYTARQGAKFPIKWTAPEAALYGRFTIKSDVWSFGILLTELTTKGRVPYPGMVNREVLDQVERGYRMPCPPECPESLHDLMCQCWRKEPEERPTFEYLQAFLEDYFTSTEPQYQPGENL
# UniProt Q9H0K1, whole entry: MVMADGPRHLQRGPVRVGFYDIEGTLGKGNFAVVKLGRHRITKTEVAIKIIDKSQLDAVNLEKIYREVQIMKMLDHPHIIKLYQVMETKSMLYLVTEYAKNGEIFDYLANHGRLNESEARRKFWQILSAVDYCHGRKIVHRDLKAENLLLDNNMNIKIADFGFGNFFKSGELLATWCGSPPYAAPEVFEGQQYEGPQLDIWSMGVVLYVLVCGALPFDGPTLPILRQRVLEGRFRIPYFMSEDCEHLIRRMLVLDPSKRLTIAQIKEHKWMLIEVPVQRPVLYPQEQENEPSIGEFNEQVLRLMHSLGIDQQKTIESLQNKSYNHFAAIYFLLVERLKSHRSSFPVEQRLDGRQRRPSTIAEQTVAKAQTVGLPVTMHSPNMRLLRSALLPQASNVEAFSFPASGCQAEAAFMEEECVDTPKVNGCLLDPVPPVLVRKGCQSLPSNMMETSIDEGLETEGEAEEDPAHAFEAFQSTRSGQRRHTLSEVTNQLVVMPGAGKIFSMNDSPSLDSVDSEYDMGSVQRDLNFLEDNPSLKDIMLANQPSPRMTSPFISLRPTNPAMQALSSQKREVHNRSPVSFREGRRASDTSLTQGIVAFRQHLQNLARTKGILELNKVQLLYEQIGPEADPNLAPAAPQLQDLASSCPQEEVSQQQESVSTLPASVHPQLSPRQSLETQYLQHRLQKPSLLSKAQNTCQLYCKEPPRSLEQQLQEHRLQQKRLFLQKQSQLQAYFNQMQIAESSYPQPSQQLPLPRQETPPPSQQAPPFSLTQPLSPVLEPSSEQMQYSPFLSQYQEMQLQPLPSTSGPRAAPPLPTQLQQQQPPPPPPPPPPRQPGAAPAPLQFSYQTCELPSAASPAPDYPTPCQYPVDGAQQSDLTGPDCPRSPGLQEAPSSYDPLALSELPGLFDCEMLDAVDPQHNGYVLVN
# UniProt P57059, whole entry: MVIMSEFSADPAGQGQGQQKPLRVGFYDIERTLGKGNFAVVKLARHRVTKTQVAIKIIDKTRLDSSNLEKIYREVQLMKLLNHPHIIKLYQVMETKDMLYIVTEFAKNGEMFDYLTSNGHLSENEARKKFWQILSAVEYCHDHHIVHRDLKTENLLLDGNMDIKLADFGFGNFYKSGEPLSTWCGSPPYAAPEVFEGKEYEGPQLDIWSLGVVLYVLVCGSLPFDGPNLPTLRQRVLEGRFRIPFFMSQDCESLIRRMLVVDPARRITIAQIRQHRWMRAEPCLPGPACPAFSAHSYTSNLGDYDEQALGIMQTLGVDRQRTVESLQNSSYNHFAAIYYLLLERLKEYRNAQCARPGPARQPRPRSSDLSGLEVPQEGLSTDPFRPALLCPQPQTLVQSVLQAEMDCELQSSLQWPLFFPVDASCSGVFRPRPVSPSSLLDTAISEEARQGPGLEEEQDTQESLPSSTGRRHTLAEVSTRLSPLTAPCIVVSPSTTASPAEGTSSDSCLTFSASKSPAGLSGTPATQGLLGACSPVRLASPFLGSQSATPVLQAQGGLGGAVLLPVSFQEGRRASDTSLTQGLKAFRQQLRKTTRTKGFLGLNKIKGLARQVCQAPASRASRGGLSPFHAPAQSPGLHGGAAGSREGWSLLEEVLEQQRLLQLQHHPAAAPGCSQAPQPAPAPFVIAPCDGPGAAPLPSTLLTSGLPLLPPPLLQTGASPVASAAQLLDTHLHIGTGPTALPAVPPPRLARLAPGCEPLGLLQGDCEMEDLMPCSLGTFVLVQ
# Experiments:
# EPHA2 = EPHA2 (Homo sapiens, UniProt P29317); test: EPHA2 kinase assay, IMAP fluorescence polarization; settings: read-out: EPHA2 - AVERAGE Ki, 50 or 100 μM ATP, Tris pH 8.5
# Protocol: (§1) SIK2, SIK1, SIK3, Abl, Src and EPHA2 Kinase Assays
# (§2) SIK2, SIK1, SIK3, Abl, Src and EPHA2 assays were performed using an IMAP fluorescence polarization assay format (Molecular Devices Inc.). 0.6-13 nM of each kinase (Life Technologies) was incubated for 60 min at room temperature with 100 nM of either FAM-Abltide, FAM-Srctide or FAM-HDAC protein derived peptide (synthesized by Alta Biosciences, Birmingham UK). Assays were carried out in the presence of 50 or 100 μM ATP in either 20 mM Tris buffer (pH 7.2) containing 4 mM MgCl2, 0.2% BSA and 2 mM DTT (SIK2, SIK1, SIK3, Abl, Src); or 20 mM Tris buffer (pH 8.5) containing 20 mM MgCl2, 0.5% BSA, 0.2% Triton and 5 mM DTT (EPHA2). Typically, dose response analyses were performed over concentration ranges from 0.00005-1 μM. Reactions were stopped by adding 2 assay volumes of 0.25% (v/v) IMAP binding reagent in either an 85:15 ratio (SIK2, SIK1, SIK3, Abl, EPHA2) or 30:70 ratio (Src) of IMAP binding buffers A and B (Molecular Devices). After incubation to allow the detection reagents to bind to the phosphorylated peptide, fluorescence polarization was measured on a Tecan Infinite plate reader at excitation (470 nm) and emission (530 nm) wavelengths. Inhibition was calculated using no inhibitor and no enzyme controls as 0 and 100% inhibition, respectively. […]
# SIK3 = SIK3 (Homo sapiens, UniProt Q9Y2K2); test: SIK3 kinase assay, IMAP fluorescence polarization; settings: read-out: SIK3 - AVERAGE Ki, 50 or 100 μM ATP
# Protocol: as §1, §2
# Abl = Abl (Homo sapiens, UniProt P00519); test: Abl kinase assay, IMAP fluorescence polarization; settings: read-out: Abl - AVERAGE Ki, 50 or 100 μM ATP
# Protocol: as §1, §2
# Src = Src (Homo sapiens, UniProt P12931); test: Src kinase assay, IMAP fluorescence polarization; settings: read-out: Src - AVERAGE Ki, 50 or 100 μM ATP
# Protocol: as §1, §2
# SIK2 = SIK2 (Homo sapiens, UniProt Q9H0K1); test: SIK2 kinase assay, IMAP fluorescence polarization; settings: read-out: SIK2 - AVERAGE Ki, 50 or 100 μM ATP
# Protocol: as §1, §2
# SIK1 = SIK1 (Homo sapiens, UniProt P57059); test: SIK1 kinase assay, IMAP fluorescence polarization; settings: read-out: SIK1 - AVERAGE Ki, 50 or 100 μM ATP
# Protocol: as §1, §2
smiles,measurement,setting,value
Cc1cccc(Cl)c1-c1ccc2c(C(=O)NC3CCN(C)CC3)c(N)ncc2c1,Ki,EPHA2,124 nM
same,Ki,SIK3,72.5 nM
same,Ki,Abl,355 nM
same,Ki,Src,193 nM
same,Ki,SIK2,4.41 nM
same,Ki,SIK1,6.21 nM
